# Binding of CDR-mutated scFvs to a peptide of the spike HR2 region

From the AlphaSeq antibody data of Li et al. 2023 (doi:10.1038/s41467-023-39022-2), copy in the FLAb collection.

Binding partner: SARS-CoV-2 spike HR2 peptide, sequence PDVDLGDISGINAS.

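Phage display of a naive human antibody library on the peptide gave the parent. These sequences belong to a second round, designed from the earlier measurements on random variants of the parent. Group labels follow the data file (Ctrl: baseline library sampled from a position-specific scoring matrix, with some repeated check sequences; GP: Gaussian process model; HC: hill climbing; Gen: genetic algorithm; Gibbs: Gibbs sampling; a sequence that several methods proposed may carry one label only). The assay is AlphaSeq: two haploid yeast populations carry antibody and antigen on their surface. The frequency of each diploid, read from paired DNA barcodes, reflects how well the two displayed proteins bind. Scores were corrected for input abundance and mapped to Kd with protein pairs of known affinity run in the same pool. Mating was done six times.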

Parent: Ab-14, a human scFv built as VH, a (GGGGS)3 linker, VL. Only the CDRs of the light chain vary.
VH: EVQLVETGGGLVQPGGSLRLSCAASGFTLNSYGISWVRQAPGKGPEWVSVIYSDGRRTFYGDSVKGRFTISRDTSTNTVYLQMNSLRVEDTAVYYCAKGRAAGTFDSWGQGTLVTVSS
VL: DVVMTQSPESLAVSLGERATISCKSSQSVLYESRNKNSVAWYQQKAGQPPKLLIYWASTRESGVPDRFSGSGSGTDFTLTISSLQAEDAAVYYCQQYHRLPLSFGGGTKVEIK

Positions count from residue 1 of the parent VL; K36S puts S in place of K. This list holds designs with at most six substitutions. Scale: log10 of Kd in nM, estimated from mating counts; low values are strong binders. Replicates are averaged; those with no signal do not enter the mean. "nd" means that the variant was in the library but no mating with the target was seen in that replicate; the authors take this as a sign of poor binding, and no number exists. Of ten entries with the parent sequence, four were seen in most replicates (averages 0.34 to 2.37), three in one and three in none, so single entries are noisy. A sequence measured in both rounds can read differently, since the two assays cover different ranges. The authors' rule: three or more of the six replicates give a measured affinity, fewer mean a poor binder. Nonspecific signal, from three strains lacking the peptide, appeared in 4% of pairings of all light chain designs, centred on 2.64 (5% of these signals below 1.59); values are not corrected for it.

changes	group	log10 Kd (nM) by replicate	mean log10 Kd (nM)
K36S/E61V	Ctrl	0.54 / 0.13 / 0.40 / 0.18 / 0.46 / 0.82	0.42
S33D/N35Y/H98L/S103W	Ctrl	nd / nd / nd / nd / nd / nd	nd
S26L/S28M/V29Q/L30E/W56H/S62D	GP_HC	0.17 / 0.18 / 0.33 / 0.63 / 0.46 / 0.71	0.41
V29M/S33E/R34Q/N37Q/E61P	Ctrl	nd / nd / nd / nd / nd / nd	nd
S25L/V29E/K36T/W56N	GP_Gen	-0.06 / -0.19 / -0.45 / -0.01 / -0.36 / -0.15	-0.20
S25L/K36T/W56N/E61L	GP_Gen	0.16 / -0.12 / -0.31 / -0.27 / -0.25 / -0.25	-0.17
Q27I/V29Y/L30E/W56E/L100M	GP_HC	0.57 / 0.07 / 0.05 / 0.03 / 0.43 / 0.41	0.26
V29D/Y31G	Ctrl	nd / 2.18 / 2.41 / 0.39 / 0.75 / 1.53	1.45
S25Q/V29D/Y31L/W56D	GP_HC	0.13 / -0.05 / -0.23 / -0.22 / -0.12 / 0.03	-0.08
S25V/W56N/T59Q/E61M	GP_Gen	0.69 / 0.35 / 0.74 / 0.30 / 0.55 / 0.56	0.53
S25L/S26M/Q27G/N35W/S38A/W56E	GP_Gibbs	0.94 / 0.73 / 0.92 / 0.59 / 1.07 / 0.98	0.87
S25W/H98Q	Ctrl	1.01 / 1.08 / 0.72 / 0.81 / 1.69 / 1.79	1.19
N35Y/S38D/T59E	Ctrl	nd / nd / nd / nd / nd / nd	nd
V29E/L30P/W56N	GP_Gen	0.13 / 0.10 / 0.08 / 0.00 / -0.01 / 0.15	0.08
Y31D/S58T	Ctrl	1.58 / 2.26 / 1.57 / 2.20 / 1.74 / 1.64	1.83
K24L/Q27I/V29Y/R34P/W56E/E61C	GP_HC	1.20 / 0.73 / 0.40 / 0.60 / 0.65 / 0.50	0.68
S25M/V29W/Y31E/S33D/H98S	Ctrl	1.49 / 0.88 / 0.63 / 0.86 / 0.92 / 1.42	1.03
S25L/S26M/W56H/S62D/Q95K	GP_HC	nd / 2.44 / nd / nd / nd / nd	2.44
S28W/V29C/S38A	Ctrl	nd / nd / 1.36 / nd / nd / 1.53	1.44
S25L/R34F/N35Y/S103T	Ctrl	1.50 / nd / nd / nd / nd / 2.24	1.87
S25Q/S38A/W56D/Q96A/R99W	GP_HC	0.38 / 0.38 / 0.24 / 0.42 / 0.26 / 0.69	0.40
S25L/N35P/W56N	GP_Gen	-0.11 / -0.08 / -0.22 / -0.40 / -0.29 / -0.06	-0.19
S25Y/P101L	Ctrl	nd / nd / nd / nd / nd / nd	nd
S25L/W56N/S62P/H98I	Ctrl	-0.19 / -0.51 / -0.45 / -0.38 / -0.35 / -0.18	-0.34
S25L/S26E/W56N/E61C	GP_Gen	-0.10 / -0.09 / -0.32 / -0.44 / -0.30 / -0.13	-0.23
L30W/W56S	Ctrl	nd / nd / 1.54 / 1.26 / 0.56 / 1.74	1.28
S25L/S26R/V29T/S38E/W56N	GP_HC	0.76 / 0.47 / 0.48 / 0.51 / 0.42 / 0.71	0.56
S25L/S26E/V29E/W56N/T59E	GP_Gen	-0.15 / -0.36 / -0.31 / -0.59 / -0.53 / -0.40	-0.39
E61I/L100G	Ctrl	nd / nd / nd / nd / nd / nd	nd
S25L/S26Q/V29Q/W56N/S62D	GP_Gen	0.63 / 0.51 / 0.40 / 0.66 / 0.47 / 0.46	0.52
S26E/L30S	Ctrl	1.71 / 1.70 / 1.25 / 1.04 / 1.56 / 2.54	1.63
Q27I/V29Y/Y31G/W56E	GP_HC	0.65 / 0.57 / 0.10 / 0.01 / -0.01 / 0.10	0.24
S25Q/S26Q/V29M/W56N/S62E/S103M	GP_Gibbs	0.53 / 0.02 / -0.09 / -0.05 / -0.01 / -0.09	0.05